This passage reports IC50 and Activity results from ChEMBL document CHEMBL1136781, “Comparison of in vitro P-glycoprotein screening assays: recommendations for their use in drug discovery” (J Med Chem, 2003).

Chains of the proteins cited; added tags and fusions are not shown.
UniProt P21447, whole entry: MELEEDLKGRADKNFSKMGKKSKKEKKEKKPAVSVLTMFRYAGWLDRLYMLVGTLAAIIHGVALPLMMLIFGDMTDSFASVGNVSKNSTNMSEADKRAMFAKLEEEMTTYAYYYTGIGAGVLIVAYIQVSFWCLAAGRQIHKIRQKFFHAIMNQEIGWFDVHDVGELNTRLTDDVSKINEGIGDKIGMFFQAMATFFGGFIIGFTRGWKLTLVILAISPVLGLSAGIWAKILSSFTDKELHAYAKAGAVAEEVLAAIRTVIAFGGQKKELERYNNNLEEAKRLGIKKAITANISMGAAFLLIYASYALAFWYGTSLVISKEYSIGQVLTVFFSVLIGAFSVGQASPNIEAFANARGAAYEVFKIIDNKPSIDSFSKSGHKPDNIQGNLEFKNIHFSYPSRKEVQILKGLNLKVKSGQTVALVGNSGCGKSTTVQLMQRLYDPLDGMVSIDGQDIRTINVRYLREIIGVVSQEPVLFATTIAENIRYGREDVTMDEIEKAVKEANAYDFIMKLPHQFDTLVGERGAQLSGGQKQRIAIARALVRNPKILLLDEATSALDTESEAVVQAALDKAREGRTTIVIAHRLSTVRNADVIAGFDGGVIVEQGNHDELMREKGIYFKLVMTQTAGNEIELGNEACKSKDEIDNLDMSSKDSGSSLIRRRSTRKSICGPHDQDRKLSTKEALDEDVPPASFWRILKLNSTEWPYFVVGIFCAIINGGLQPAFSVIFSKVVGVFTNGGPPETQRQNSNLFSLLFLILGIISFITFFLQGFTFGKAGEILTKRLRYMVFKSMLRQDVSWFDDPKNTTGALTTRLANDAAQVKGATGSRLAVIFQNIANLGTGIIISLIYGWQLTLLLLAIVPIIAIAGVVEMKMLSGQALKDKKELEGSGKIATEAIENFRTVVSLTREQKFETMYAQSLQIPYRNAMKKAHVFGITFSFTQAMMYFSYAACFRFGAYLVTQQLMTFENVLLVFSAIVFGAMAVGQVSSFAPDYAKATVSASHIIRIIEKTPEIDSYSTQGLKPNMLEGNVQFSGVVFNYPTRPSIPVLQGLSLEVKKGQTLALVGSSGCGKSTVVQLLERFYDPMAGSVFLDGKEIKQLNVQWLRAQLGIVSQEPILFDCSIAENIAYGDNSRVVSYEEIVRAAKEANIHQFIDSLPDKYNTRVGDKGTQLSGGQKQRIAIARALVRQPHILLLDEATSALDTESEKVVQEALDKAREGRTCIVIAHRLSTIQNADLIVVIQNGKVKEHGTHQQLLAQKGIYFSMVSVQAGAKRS
UniProt P08183, whole entry: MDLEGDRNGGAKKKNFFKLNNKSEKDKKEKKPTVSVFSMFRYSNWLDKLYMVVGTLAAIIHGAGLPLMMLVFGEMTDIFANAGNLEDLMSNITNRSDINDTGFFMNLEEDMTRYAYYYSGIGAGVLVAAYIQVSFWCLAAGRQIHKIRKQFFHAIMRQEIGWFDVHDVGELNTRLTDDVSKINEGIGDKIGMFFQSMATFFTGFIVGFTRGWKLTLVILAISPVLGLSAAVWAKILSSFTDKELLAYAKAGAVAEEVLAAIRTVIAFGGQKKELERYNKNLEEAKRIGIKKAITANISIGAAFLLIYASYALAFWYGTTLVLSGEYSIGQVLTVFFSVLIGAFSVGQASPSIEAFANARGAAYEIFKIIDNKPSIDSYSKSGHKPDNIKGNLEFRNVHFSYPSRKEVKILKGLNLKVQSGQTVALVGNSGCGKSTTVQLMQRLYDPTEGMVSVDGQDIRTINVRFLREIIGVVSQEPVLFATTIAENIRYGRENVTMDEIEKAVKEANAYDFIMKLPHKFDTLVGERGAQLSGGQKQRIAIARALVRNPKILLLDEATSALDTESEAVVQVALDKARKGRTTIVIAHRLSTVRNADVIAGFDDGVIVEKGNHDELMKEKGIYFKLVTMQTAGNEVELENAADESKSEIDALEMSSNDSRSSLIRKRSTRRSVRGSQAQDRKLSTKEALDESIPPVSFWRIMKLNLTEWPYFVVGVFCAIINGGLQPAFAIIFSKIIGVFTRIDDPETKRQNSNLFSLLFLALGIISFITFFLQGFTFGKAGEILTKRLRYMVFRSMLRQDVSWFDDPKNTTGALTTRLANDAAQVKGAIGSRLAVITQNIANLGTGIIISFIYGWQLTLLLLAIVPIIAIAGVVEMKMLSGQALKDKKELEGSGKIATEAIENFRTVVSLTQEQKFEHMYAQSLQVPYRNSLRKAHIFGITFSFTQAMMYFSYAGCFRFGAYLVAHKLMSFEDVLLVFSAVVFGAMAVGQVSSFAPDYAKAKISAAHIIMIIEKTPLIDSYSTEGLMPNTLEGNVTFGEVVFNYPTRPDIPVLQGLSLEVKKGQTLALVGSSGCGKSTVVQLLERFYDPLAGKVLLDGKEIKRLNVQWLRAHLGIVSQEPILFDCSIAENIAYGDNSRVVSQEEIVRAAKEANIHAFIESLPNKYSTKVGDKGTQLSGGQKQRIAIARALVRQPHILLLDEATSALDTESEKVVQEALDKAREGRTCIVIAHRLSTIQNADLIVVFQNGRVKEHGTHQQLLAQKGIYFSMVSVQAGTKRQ
UniProt P06795, whole entry: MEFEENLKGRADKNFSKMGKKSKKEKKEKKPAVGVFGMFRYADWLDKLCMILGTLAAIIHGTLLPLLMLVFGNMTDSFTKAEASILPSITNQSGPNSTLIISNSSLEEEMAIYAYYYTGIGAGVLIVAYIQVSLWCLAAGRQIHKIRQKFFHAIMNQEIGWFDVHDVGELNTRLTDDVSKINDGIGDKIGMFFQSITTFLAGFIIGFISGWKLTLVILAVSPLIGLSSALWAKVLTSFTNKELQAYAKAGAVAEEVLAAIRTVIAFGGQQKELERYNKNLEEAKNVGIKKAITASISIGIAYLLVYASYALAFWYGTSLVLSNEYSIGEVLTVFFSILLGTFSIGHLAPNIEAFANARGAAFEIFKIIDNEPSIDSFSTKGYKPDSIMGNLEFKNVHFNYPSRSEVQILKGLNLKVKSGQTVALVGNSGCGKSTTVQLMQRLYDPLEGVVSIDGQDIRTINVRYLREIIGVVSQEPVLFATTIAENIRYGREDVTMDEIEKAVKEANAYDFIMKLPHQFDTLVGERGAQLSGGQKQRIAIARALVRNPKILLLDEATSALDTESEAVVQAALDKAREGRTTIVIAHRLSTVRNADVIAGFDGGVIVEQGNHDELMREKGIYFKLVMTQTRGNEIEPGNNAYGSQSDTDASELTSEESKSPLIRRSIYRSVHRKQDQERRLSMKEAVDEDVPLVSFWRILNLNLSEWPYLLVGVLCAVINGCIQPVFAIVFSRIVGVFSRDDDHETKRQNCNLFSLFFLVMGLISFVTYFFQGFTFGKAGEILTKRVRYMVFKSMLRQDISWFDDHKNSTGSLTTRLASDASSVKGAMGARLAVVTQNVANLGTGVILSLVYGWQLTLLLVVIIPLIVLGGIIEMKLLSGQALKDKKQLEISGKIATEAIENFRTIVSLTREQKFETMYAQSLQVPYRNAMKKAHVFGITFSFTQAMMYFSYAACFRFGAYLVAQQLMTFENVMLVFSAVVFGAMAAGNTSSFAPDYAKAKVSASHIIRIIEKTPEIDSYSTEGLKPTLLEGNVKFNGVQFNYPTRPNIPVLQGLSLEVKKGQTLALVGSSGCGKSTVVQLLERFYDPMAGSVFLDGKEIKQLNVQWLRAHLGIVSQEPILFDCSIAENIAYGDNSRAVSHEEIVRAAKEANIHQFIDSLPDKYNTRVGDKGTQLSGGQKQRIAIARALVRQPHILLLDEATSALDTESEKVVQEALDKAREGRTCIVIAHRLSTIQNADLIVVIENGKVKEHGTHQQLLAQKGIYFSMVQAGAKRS

Structures are written as SMILES. Bounds are passed on as bounds.

The target in data set [1] is T1, ATP-dependent translocase ABCB1 (Mus musculus, UniProt P21447). Nature of the data set: Inhibition of P-glycoprotein, mouse L-mdr1a expressed in LLC-PK1 epithelial cells using calcein-AM polarisation assay. Format: functional, cell-based.
The target in data set [2] is T1, ATP-dependent translocase ABCB1. Nature of the data set: TP_TRANSPORTER: inhibition of Calcein-AM efflux in Mdr1a-expressing LLC-PK1 cells. The data set is classed as functional, cell-based.
Data set [3] concerns the target T2, ATP-dependent translocase ABCB1 (Homo sapiens, UniProt P08183). Nature of the data set: TP_TRANSPORTER: inhibition of Calcein-AM efflux in MDR1-expressing LLC-PK1 cells. The data set is classed as functional, cell-based.
Data set [4] concerns the target T3, ATP-dependent translocase ABCB1 (Mus musculus, UniProt P06795). Nature of the data set: Inhibition of P-glycoprotein, mouse L-mdr1b expressed in LLC-PK1 epithelial cells using calcein-AM polarisation assay. The data set is classed as functional, cell-based.
Data set [5] deals with T3, ATP-dependent translocase ABCB1. Nature of the data set: TP_TRANSPORTER: inhibition of Calcein-AM efflux in Mdr1b-expressing LLC-PK1 cells. The data set is classed as functional, cell-based.
Data set [6] has as its target T2, ATP-dependent translocase ABCB1. Nature of the data set: Inhibition of P-glycoprotein using ATPase in MDR1 membranes. The data set is classed as functional, cell membranes.

`O=c1[nH]c2ccccc2n1C1CCN(CCCC(c2ccc(F)cc2)c2ccc(F)cc2)CC1` [PIMOZIDE]: the IC50 in data set [1] and in data set [2] was 4.9 µM each time.
Turning to `CN/C(=N/CCSCc1nc[nH]c1C)NC#N` [CIMETIDINE], the IC50 in data set [1], in data set [3] and in data set [2] was over 50 µM each time.
`CCC(C)n1ncn(-c2ccc(N3CCN(c4ccc(OC[C@H]5CO[C@](Cn6cncn6)(c6ccc(Cl)cc6Cl)O5)cc4)CC3)cc2)c1=O` (stereo not given in full) [ITRACONAZOLE]: the IC50 (usually the concentration needed to halve the response being measured) in data set [4] was 0.7 µM.
As for `CCC(C)n1ncn(-c2ccc(N3CCN(c4ccc(OCC5COC(Cn6cncn6)(c6ccc(Cl)cc6Cl)O5)cc4)CC3)cc2)c1=O` (stereo not given) [ITRACONAZOLE], the IC50 in data set [5] was 0.7 µM.
Turning to `CC[C@H]1OC(=O)[C@H](C)[C@@H](O[C@H]2C[C@@](C)(OC)[C@@H](O)[C@H](C)O2)[C@H](C)[C@@H](O[C@@H]2O[C@H](C)C[C@H](N(C)C)[C@H]2O)[C@](C)(O)C[C@@H](C)C(=O)[C@H](C)[C@@H](O)[C@]1(C)O` [ERYTHROMYCIN], the IC50 in data set [4] and in data set [5] was over 35 µM throughout.
The compound `CN1CC[C@]23c4c5ccc(O)c4O[C@H]2[C@@H](O)C=C[C@H]3[C@H]1C5` [MORPHINE] came in with an Activity in data set [6] of 3.7 nmol/min/mg.
